Publication PMC12087695, “A Phenotyping Tool for Seven Cytochrome P450 Enzymes and Two Transporters: Application to Examine the Effects of Clopidogrel and Gemfibrozil” (Clinical Pharmacology and Therapeutics, 2025)

Experiment: Plasma pharmacokinetics of cocktail index drugs and their metabolites, five-phase crossover trial;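 note: parameters derived from plasma drug levels quantified by LC–MS with internal standards after acetonitrile protein precipitation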
Details: phase IV: clopidogrel 300 mg pretreatment + full cocktail

With `COc1ccc2[nH]c([S+]([O-])Cc3ncc(C)c(OC)c3C)nc2c1` (stereo not shown) [Omeprazole, omeprazole] the “Tmax, median (range)” value was 1.5 (1.0-3.0) h.
